Test results published in patent US20060078594A1, “Iron complex” (Conopco, Inc., d/b/a UNILEVER, priority 2004, published 2006).

Test: Iron dialysability assay (in vitro dialysable iron from fortified dough)
Settings: dough from whole-grain wheat flour fortified with 50 mg/kg iron; normalized to dough fortified with ferrous sulfate; means of 4-5 experiments; ** = significantly different from ferrous sulfate (p < 0.05)

Iron 2-hydroxy-3-methoxy benzaldehyde (o-vanillin)
Relative availability: 2.4**
